Measured values: ChEMBL document CHEMBL1156775 (J Med Chem, 2010)

How the values were obtained:
Homo sapiens [1] = organism: Homo sapiens; assay: Selectivity ratio of Ki for human delta opioid receptor to Ki for human mu opioid receptor
Homo sapiens [2] = organism: Homo sapiens; assay: Selectivity ratio of Ki for human kappa opioid receptor to Ki for human mu opioid receptor

`Ic1ccc(CNc2ccc3c(c2)[C@@]24CCCC[C@H]2[C@@H](C3)N(CC2CC2)CC4)cc1` showed a Ratio Ki (Homo sapiens [1]) of 48 and a Ratio Ki (Homo sapiens [2]) of 1.1.
